Experiments:
Format in all cases: cell-based, human
HL-60 cells = test: In vitro cytotoxicity assay (MTT), HL-60; settings: HL-60, Her2−, 120 hours incubation
Description: (§1) The cell lines used in the cytotoxicity assays were HL-60, a human promyelocytic leukemia cell line; NCI-N87, a human gastric carcinoma cell line; BT-474, a human invasive ductal carcinoma cell line; and SKOV3, a human ovarian carcinoma cell line. For HL-60, NCI-N87, and BT-474 cells, the cells were grown in RPMI-1640 with 10% FBS. For SKOV3 cells, the cells were grown in McCoy's 5A Medium with 10% FBS. To run the assay, the cells (180 μl, 6000 cells) were added to each well in a 96-well plate and incubated at 37° C. with 5% CO2 for 24 hours. Next, the cells were treated with test compounds (20 μl) at various concentrations in appropriate cell culture medium (total volume, 0.2 mL). The control wells contain cells and the medium but lack the test compounds. The plates were incubated at 37° C. with 5% CO2 for 120 hours. MTT (5 mg/ml) was then added to the wells (20 μl) and the plates were incubated at 37° C. for 1.5 hr. The medium was carefully removed and DMSO (180 μl) was added afterward.
(§2) After it was shaken for 15 min, the absorbance was measured at 490 nm and 570 nm with a reference filter of 620 nm. The inhibition % was calculated according to the following equation: inhibition %=[1-(assay-blank)/(control-blank)]×100.

NCI-N87 cells = test: In vitro cytotoxicity assay (MTT), N87; settings: N87-3, Her2++, 120 hours incubation
Description: as §1, §2

BT-474 cells = test: In vitro cytotoxicity assay (MTT), BT-474; settings: BT474, Her2++, 120 hours incubation
Description: as §1, §2

SKOV3 cells = test: In vitro cytotoxicity assay (MTT), SKOV3; settings: SKOV3, Her2++, 120 hours incubation
Description: as §1, §2

Substance: T-DM1
- IC50 (HL-60 cells): > 10000 nM
- IC50 (NCI-N87 cells): 0.89 nM
- IC50 (BT-474 cells): 0.78 nM
- IC50 (SKOV3 cells): 0.2 nM
